From US20100113484A1, “TREATING AGENT OF UROPATHY” (ASKA PHARMACEUTICAL CO., LTD., priority 2006, published 2010)

The chains behind the UniProt entries cited, without tags or fusion partners. Where a name states a change or a piece, a line headed by the entry shows the natural chain unless it says otherwise.
UniProt O76083: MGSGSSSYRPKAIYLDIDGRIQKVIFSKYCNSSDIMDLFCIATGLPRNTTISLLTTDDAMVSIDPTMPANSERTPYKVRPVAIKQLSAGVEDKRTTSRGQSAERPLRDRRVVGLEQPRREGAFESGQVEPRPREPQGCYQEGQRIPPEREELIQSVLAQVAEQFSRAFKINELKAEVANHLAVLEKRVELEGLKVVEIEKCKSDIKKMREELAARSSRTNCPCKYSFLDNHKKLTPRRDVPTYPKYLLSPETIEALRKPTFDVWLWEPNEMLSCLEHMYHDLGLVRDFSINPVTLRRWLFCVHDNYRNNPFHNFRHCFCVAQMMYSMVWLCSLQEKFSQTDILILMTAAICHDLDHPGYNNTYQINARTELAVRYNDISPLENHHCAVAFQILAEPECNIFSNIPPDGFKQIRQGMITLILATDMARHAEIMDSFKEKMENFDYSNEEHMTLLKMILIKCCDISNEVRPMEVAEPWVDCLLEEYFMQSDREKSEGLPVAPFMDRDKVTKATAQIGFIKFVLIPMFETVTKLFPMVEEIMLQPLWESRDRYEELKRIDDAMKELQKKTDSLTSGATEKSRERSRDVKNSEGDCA

Tests used:
[1] = target: T1, human recombinant PDE9 protein (Homo sapiens, UniProt O76083); test: Measurement of PDE9-inhibiting activity ([3H]-cGMP hydrolysis); format: biochemical
T1 construct: made in house; host or cells: COS-1 cells, transient transfection with pcDNA 3.1 (+); supernatant of the homogenate, not purified
Protocol: Based on the base sequence of hsPDE9A1 registered with GenBank database (accession No.: AF048837), hsPDE9A1 fragment was amplified by polymerase chain reaction under the following conditions, using the following sequence (Amasham Pharmacia Biotech) as the primer and Human Prostate MATCHMAKER cDNA library (CLONTECH) as the template DNA, with Pfu Turbo DNA polymerase (STRATAGENE):
PCR condition: [95° C., 5 min]×1 cycle, [(95° C., 1 min), (58° C., 2 min), (72° C., 3 min)]×25 cycles, [72° C., 10 min]×1 cycle
Thus obtained hsPDE9A1 fragment was given a restricted enzymatic treatment with NheI and NotI, and thereafter inserted into pcDNA 3.1 (+) expression vector (Invitrogen) to let it serve as a human PDE9 expression vector.
Human PDE9 expression vector-transformed Escherichia coli was mass incubated to produce a large amount of human PDE9 expression vector, which was transiently transfected into COS-1 cells, with LIPOFECTAMINE 2000 Reagent (GIBCO). […]
. […] Thereafter [^3H]-guanosine was eluted with 3 mL of 3 mol/L aqueous ammonia and its radiation activity was measured with liquid scintillation counter.
PDE9 inhibition of the tested compound can be calculated by the following formula: […]
From the percent inhibition at various concentration levels of each tested compound, its IC50 value against PDE9 can be determined.

[2] = target: T2, human recombinant PDE5 protein (Homo sapiens, UniProt O76074); test: Measurement of PDE5-inhibiting activity; format: biochemical
T2 construct: made in house; host or cells: COS-1 cells, transient transfection with pcDNA 3.1 (+); supernatant of the homogenate, not purified
Protocol: Based on the base sequence of hsPDE5A1 registered with GenBank database (accession No.: NM-001083), hsPDE5A1 fragment was amplified by polymerase chain reaction (PCR) under the following conditions, using the following sequence (SIGMA GENOSYS) as the primer and Human Prostate MATCHMAKER cDNA library (CLONTECH) as the template DNA, with KDD plus DNA polymerase (TOYOBO):
PCR condition: [94° C., 2 min]×1 cycle, [(94° C., 30 sec), (65° C., 30 sec), (68° C., 3 min)]×25 cycles, [68° C., 6 min]×1 cycle
Thus obtained hsPDE5A1 fragment was given a restricted enzymatic treatment with XBaI and EcoRI, and thereafter inserted into pcDNA 3.1 (+) expression vector (Invitrogen) to let it serve as a human PDE5 expression vector.
Human PDE5 expression vector-transformed Escherichia coli was mass incubated to produce a large amount of human PDE5 expression vector, which was transiently transfected into COS-1 cells, with LIPOFECTAMINE 2000 Reagent (GIBCO). The cells were homogenized in ice-cooled buffer A and centrifuged at 4° C., 14,000×g for 10 minutes. The supernatant was isolated to provide human recombinant PDE5 protein solution.
By a method similar to the measurement of PDE9-inhibiting activity, PDE5-inhibiting activity of each of the test compounds was measured, percent inhibition was calculated and IC50 value against PDE5 was determined. […]

[3] = tested on: partial urethra obstruction model in guinea pigs; test: Dysuria pathological model: partial urethra obstruction model, cystometry; format: in vivo, Hartley female guinea pigs; conditions: guinea pig, i.v.
Protocol: Three-four weeks old Hartley female guinea pigs (Japan SLC, Inc.) were given celiotomy under anesthesia with pentobarbital (30 mg/kg i.p.) and in their urethra to the peripheral side by 1-2 mm from the bladder neck, each a polyethylene tube of 1.4 mm in width and 2.0 mm in inner diameter was placed. After closing the wound, the guinea pigs were bred for at least 3 weeks to produce partial urethra obstruction model in guinea pigs in which occurrence of intravesical pressure rise not accompanied by micturition (uninhibited contraction) and residual urine were observed.
The model was catheterized under anesthesia with urethane (1 g/kg i.p.) at the apex of urinary bladder and right jugular vein for cystometrography and intravenous administration, respectively. The other end of the bladder catheter was connected to a pressure transducer and infusion pump via a three way stop-cock, and physiological saline was continuously infused into the bladder through the infusion pump at a rate of 0.4 mL/min to induce micturition reflex. Immediately after the micturition reflex was induced, infusion of physiological saline into the bladder was stopped. The intravesical pressure at the time the micturition reflex was induced was measured with the pressure transducer, and the obtained cystometrogram was recorded with pen recorder. The urine voided was collected with disposable type weighing dish and its weight was measured. Further the physiological saline remained in the bladder was sucked with syringe via the bladder catheter and the residual urine volume was measured. The operations of suspending the infusion of physiological saline upon induction of micturition reflex, and about 1 minute thereafter resuming the infusion of physiological saline to induce micturition reflex were repeated plural times (generally 4 times) to stabilize the micturition reflex. […]

Compound: CC(C)c1n[nH]c2c(=O)[nH]c(Cc3cccc(Cl)c3)nc12 [C-11, reference compound]
- IC50 [1]: 8 nM
- IC50 [2]: 1340 nM
- Frequency of occurrence of uninhibited contraction after administration ([3]; 0.1 mg/kg): 0.91 times/min
- Frequency of occurrence of uninhibited contraction after administration ([3]; 1 mg/kg): 1.03 times/min
- Frequency of occurrence of uninhibited contraction after administration ([3]; 3 mg/kg): 1.09 times/min
